Measured values from PMC7248707 (Molecules, 2020).

Protein sequences, listed by entry. Tags and fused reporters are not part of them.
UniProt P35372, whole entry: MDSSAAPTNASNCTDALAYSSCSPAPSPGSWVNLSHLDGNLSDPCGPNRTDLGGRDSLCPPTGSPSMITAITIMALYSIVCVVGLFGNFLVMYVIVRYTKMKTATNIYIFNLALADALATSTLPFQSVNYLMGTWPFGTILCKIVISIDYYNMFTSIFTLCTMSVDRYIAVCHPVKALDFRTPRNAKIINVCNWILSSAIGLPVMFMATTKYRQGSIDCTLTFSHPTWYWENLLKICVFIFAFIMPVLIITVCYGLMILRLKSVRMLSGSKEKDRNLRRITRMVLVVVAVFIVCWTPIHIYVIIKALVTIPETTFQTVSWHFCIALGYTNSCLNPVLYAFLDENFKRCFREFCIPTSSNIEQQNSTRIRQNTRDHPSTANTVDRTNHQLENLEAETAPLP

Key:
human MOR [1] = biological target: T1, human MOR (Homo sapiens, UniProt P35372)
[2] = cited from earlier work
human MOR [3] = biological target: T1, human MOR; assay: biochemical
human MOR [4] = biological target: T1, human MOR; details: relative to DALDA
human MOR [5] = biological target: T1, human MOR; assay: biochemical; remark: listed apart in the source

In the case of `Cc1cc(O)cc(C)c1C[C@H](N)C(=O)N[C@H](CCCNC(=N)N)C(=O)N[C@@H](Cc1ccccc1)C(=O)N[C@@H](CCCCN)C(N)=O` [[Dmt^1]DALDA, H-Dmt-D-Arg-Phe-Lys-NH2], the “higher agonist potency than DAMGO” value (human MOR [1]) is given as 35 fold, the “increase in agonist potency versus DALDA” value (human MOR [1]) is given as 292 fold and the “BBB crossing / CNS entry” value [2] is given as “can enter the CNS”. For the same compound, the Ki (human MOR [3]) was 0.23 ± 0.02 nM, the “increase in binding affinity to the human MOR versus DALDA” value (human MOR [4]) was 27 fold and the EC50 (human MOR [5]) was 0.51 ± 0.06 nM.
